Activity data for one compound are collected here from ChEMBL document CHEMBL5380833, “Discovery of Potent and Highly Selective Interleukin-2-Inducible T-Cell Kinase Degraders with In Vivo Activity” (J Med Chem, 2023).

Chains of the proteins cited; added tags and fusions are not shown. Lines headed by an entry give the natural chain unless they say otherwise; changes in a name come on top.
UniProt Q08881: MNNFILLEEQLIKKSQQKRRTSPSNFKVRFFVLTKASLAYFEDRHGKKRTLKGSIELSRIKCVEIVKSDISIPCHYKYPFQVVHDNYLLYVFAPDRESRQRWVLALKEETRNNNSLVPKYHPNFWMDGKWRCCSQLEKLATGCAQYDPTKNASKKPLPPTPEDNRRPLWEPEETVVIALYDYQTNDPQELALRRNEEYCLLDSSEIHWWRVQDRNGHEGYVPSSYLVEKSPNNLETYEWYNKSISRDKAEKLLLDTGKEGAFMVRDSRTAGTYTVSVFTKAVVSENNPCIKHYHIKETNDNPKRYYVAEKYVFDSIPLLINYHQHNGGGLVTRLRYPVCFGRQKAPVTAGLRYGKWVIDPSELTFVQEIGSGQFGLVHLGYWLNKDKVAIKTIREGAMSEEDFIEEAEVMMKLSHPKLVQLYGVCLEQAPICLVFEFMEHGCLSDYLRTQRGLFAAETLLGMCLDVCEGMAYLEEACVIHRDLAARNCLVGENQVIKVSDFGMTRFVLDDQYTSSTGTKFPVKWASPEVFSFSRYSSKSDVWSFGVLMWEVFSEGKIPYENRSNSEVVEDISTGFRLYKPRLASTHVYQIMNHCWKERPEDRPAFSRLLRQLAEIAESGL
UniProt Q96SW2: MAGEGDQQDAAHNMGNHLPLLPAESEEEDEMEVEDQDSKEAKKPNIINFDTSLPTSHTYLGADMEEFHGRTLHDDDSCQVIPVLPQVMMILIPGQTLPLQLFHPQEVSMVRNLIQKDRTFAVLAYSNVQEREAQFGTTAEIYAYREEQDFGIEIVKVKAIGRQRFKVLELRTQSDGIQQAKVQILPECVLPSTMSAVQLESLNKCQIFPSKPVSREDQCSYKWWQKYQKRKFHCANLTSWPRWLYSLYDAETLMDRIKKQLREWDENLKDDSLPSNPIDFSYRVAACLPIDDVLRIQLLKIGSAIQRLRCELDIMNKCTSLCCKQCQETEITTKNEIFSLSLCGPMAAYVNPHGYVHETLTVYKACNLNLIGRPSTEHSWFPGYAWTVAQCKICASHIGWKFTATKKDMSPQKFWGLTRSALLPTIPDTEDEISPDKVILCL

The source made the active and inactive calls. No cut-off for these calls is given here.

The assay addresses Protein cereblon/Tyrosine-protein kinase ITK/TSK (Homo sapiens, UniProt Q08881+Q96SW2). Kind of assay: PROTAC activity at CRBN/ITK in human Jurkat cells assessed as induction of ITK degradation at 0.01 to 10 uM measured after 16 hrs by Western blot analysis. The assay is classed as cell-based. As to conditions: dose 0.01-10 µM.

Regarding `CN(CCCCCC(=O)Nc1ccc2c(c1)C(=O)N(C1CCC(=O)N(C)C1=O)C2=O)CC[C@@H](c1ccccc1)n1cc(NC(=O)c2n[nH]c3c2CCC(C)(C)C3)cn1` (stereo partly specified), the outcome was inactive.
